US20180021294A1, “Ephrin Receptor A2 (EPHA2)-Targeted Docetaxel-Generating Nano-Liposome Compositions” (Merrimack Pharmaceuticals, Inc., priority 2016, published 2018)

Tested on: OE-19 xenograft
Experiment: Microdistribution in OE-19 esophageal xenograft model
Type: in vivo, mice
Settings: 24 h after injection
Experimental: For OE-19 model, NCR nu/nu homozygous athymic male nude mice (5-6 week old) were obtained from Taconic. Five mice per group were inoculated ectopically in the flank with 0.1 mL of the suspension containing 10×10^6 cells suspended in PBS.
In order to test the effect of targeting on liposome microdistribution in vivo, 24 hours before sacrifice, animals were injected with a mixture of EphA2 targeted non drug loaded placebo liposomes and a non-targeted non drug loaded placebo liposomes at dose of 1 micromole/liposome type/animal labeled with two different lipophilic fluorescent dyes DilC18(5)-DS and DilC18(3)-DS, respectively (EphA2-ILs/NT-Ls group) To control for differences in fluorescence between DilC18(5) and DilC15(3), one animal from each model was injected with the a mixture of non-targeted liposomes which should distribute equally in tissue (NT-Ls/NT-Ls group).
A second group of animals was injected with the anti-EphA2 antibody clone 1C1 (SEQ ID NO:39) at 5 mg/kg bw.
Non drug loaded liposomes are prepared by ethanol injection—extrusion method. […] Phospholipid concentration is measured by phosphate assay. Particle diameter is analyzed by dynamic light scattering. […] The ligand inserted liposomes are purified on Sepharose CL-4B column and analyzed by phosphate assay for lipid concentration and SDS-PAGE for antibody quantification. […]

B1: 1C1: EphA2 IgG antibody clone 1C1, SEQ ID NO:39, disclosed in PCT/US06/34894 (protein)
chain: EVQLLESGGGLVQPGGSLRLSCAASGFTFSHYMMAWVRQAPGKGLEWVSRIGPSGGPTHYADSVKGRFTISRDNSKNTLYLQMNSLRAEDTAVYYCAGYDSGYDYVAVAGPAEYFQHWGQGTLVTVSSASTKGPSVFPLAPSSKSTSGGTAALGCLVKDYFPEPVTVSWNSGALTSGVHTFPAVLQSSGLYSLSSVVTVPSSSLGTQTYICNVNHKPSNTKVDKKV[human IgG1 Fc not listed]
modifications: Synthetically Generated Sequence
Question: B1 was tested. Which “biodistribution at the organ level” value did it give?
Answer: biodistribute to most analyzed organs in a very diffuse way

Question: And the localization in skin?
Answer: high staining in the epidermis
